Assay results published in ChEMBL document CHEMBL1146701, “Discovery of a novel bicycloproline P2 bearing peptidyl alpha-ketoamide LY514962 as HCV protease inhibitor” (Bioorg Med Chem Lett, 2004).

Tested on: Hepatitis C virus NS3 protease
Assay: Inhibitory activity against Protease using replicon assay […] at 25 uM concentration
Details: Rattus norvegicus

SMILES	inhibition [%]
CCCC(NC(=O)[C@@H]1[C@H]2CC[C@@H](OCOC)C2CN1C(=O)[C@@H](NC(=O)[C@@H](NC(=O)c1cnccn1)C(C)C)C(C)C)C(=O)C(=O)NC1CC1 (some centres not stated)	80
CCCC(NC(=O)C1[C@H]2CCC(=O)[C@H]2CN1C(=O)[C@@H](NC(=O)[C@@H](NC(=O)c1cnccn1)C(C)C)C(C)C)C(=O)C(=O)NC1CC1 (some centres not stated)	-9
